Experimental data reported in PubChem BioAssay AID540277 (National Center for Advancing Translational Sciences (NCATS), 2011).
Some of the results follow. Some of these compounds have results that are not shown, active ones among them. Records with an inconclusive call do not appear. Active and inactive are the calls of the source. Rule as the data show it: active = potentiation above about 80%; inconclusive = between about 30% and that limit; inactive = weaker than that.

By UniProt entry, the sequences of proteins in these tests, tags left out.
UniProt Q8NER1, whole entry: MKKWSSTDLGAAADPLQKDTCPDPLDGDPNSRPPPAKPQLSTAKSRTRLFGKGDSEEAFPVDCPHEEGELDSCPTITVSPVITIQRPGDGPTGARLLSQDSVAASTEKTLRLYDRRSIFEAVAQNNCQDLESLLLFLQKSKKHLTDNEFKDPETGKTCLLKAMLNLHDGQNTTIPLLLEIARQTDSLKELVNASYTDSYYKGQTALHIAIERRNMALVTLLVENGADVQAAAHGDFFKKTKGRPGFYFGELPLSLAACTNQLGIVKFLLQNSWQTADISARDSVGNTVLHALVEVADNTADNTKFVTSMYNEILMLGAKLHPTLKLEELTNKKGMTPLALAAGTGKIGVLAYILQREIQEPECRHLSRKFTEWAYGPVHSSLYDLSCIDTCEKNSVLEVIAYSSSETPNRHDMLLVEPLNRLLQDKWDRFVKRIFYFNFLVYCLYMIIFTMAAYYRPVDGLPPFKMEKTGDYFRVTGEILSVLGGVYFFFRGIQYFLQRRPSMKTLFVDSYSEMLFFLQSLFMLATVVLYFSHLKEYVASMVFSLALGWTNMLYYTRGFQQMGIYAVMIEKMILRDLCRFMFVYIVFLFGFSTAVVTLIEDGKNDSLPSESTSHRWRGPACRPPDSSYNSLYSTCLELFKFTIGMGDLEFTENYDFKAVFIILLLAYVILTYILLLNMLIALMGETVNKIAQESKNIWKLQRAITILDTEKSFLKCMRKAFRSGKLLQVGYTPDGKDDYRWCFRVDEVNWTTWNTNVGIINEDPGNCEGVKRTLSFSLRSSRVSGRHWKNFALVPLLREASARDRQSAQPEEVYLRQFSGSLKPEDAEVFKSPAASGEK

Molecular target: Transient receptor potential cation channel subfamily V member 1 (Homo sapiens) (UniProt Q8NER1)
Test: HTS Assay for Compounds that Act as Potentiators of the Vanilloid Receptor 1; also: 0% is about no effect
Settings: TRPV1-expressing cells, Fluo-8 calcium influx, capsaicin EC20 potentiation; at 8.33 µM; active compounds read high
Description: The transient receptor potential ion channel, family V, number 1, (TRPV1) is one of the most important molecular transducers of painful stimuli and a potential target for analgesic drug development. Although recent clinical trials with orthosteric antagonists have not produced a successful drug because of a hyperthermia side effect and their tendency to block thermal noxious pain, this ion channel is undeniably well placed in the pain pathway, and the idea of blocking pain signals before they enter the CNS is an excellent concept and of proven efficacy when TRPV1 agonists are used. We propose a new approach involving allosteric modulation to impose an activity-dependent constraint within the context of inflammation and tissue damage that would alter the responsiveness of the channel in a way that an orthosteric vanilloid antagonist cannot achieve. We believe that the allosteric modulator approach has not been explored for this target. The main goal of this proposal is to identify additional, new, potent allosteric modulators of TRPV1 that can be used to investigate TRPV1 function. Our recent report provides evidence of proof of concept, but the compounds are just at the edge of utility in terms of potency. […] The question of whether they can be used as analgesic agents is complex, but if suitable compounds are identified then testing for analgesic properties will be conducted. NIH Chemical Genomics Center [NCGC] NIH Molecular Libraries Probe Centers Network [MLPCN] MLPCN Grant: MH089480-1A1 Assay Submitter (PI): Michael Iadarola, National Institute of Dental and Cranofacial Research
Upon TRPV1 activation in TRPV1 cells, the channel opens and extracellular cations flow through the channel into the cytosol. A calcium binding dye (Fluo-8) becomes fluorescent when bound to calcium. This dye is pre-loaded into cells and is used as a marker for calcium influx. The amount of accumulated calcium is precisely quantified using the FDSS kinetic reader and the calcium dye. For the HTS assay, freshly prepared cells are plated at a density of 2000/well in 3 ul medium in 1536-well plates and cultured overnight at 35.5C. Cells will be loaded with 1 ul of the homogeneous calcium dye (ABD Bioquest) at room temperature for 40 to 90 minutes. Plates will be loaded into the FDSS kinetic reader and a 1 sec / cycle for 10 second baseline signal will be measured. Compound library will then be added with a pintool at 23 nl and measured kinetically for 3 minutes. This portion of the read is considered the agonist portion of the screen. Following the 3 minutes of incubation, an on board pipettor will deliver 1 ul of capsaicin for a final concentration equal to the EC20. Signal will be measured kinetically for an additional 2 minutes. This portion of the read is considered the allosteric enhancer portion of the screen. The FDSS reader has a standard filter set capable of measuring calcium bound Fluo-8 (ex=480 and em=520 nm).

Compound | potentiation
O=C(NCC1(N2CCCCC2)CCCCC1)c1cc([N+](=O)[O-])ccc1Cl | inactive: -7.42%
CN1[C@@H]2CC[C@H]1CC(OC(=O)C(O)(c1ccccc1)c1ccccc1)C2 (some centres undefined) | inactive: -13%
CCN(CC)CC(C)C(C)OC(=O)C(O)(c1ccccc1)c1ccccc1 (centres undefined) | inactive: -14.1%
COc1cc(SC)ccc1C(=O)NCC1(N(C)C)CCCCC1 | inactive: -8.38%
CC(C)N1C(=O)CC2(CCN(CCOC(=O)C(O)(c3ccccc3)c3ccccc3)CC2)C1=O | inactive: 23.5%
Cc1ccc(C(=O)NCC2(N3CCCCC3)CCCCC2)cc1 | inactive: -1.15%
Cc1ccccc1C(=O)NCC1(N2CCCCC2)CCCCC1 | inactive: 2.78%
CN(C)c1ccc(C(=O)NCC2(N(C)C)CCCCC2)cc1 | inactive: 4.61%
CN(C)C1CCCC1OC(=O)C(O)(c1ccccc1)c1ccccc1 (centres undefined) | inactive: 3.59%
C=CCN1CCN(CCOC(=O)C(O)(c2ccccc2)c2ccccc2)CC1 | inactive: 2.06%
O=C(NCC1(N2CCCCC2)CCCCC1)c1cc(F)c(F)cc1Cl | inactive: 4.1%
COc1ccc(C(=O)NCC2(N(C)C)CCCCC2)cc1 | inactive: 8.54%
CCN1CCCC(OC(=O)C2(O)c3ccccc3C=Cc3ccccc32)C1 (centres undefined) | inactive: -6.39%
Cc1cc(C(=O)NCC2(N3CCCCC3)CCCCC2)ccc1[N+](=O)[O-] | inactive: -6.88%
O=C(NCC1(N2CCCCC2)CCCCC1)c1cccc(Br)c1 | inactive: 5.15%
CN(C)C1(CNC(=O)c2ccc(Br)cc2)CCCCC1 | inactive: -8.41%
COc1cc(C(=O)NCC2(N(C)C)CCCCC2)c([N+](=O)[O-])cc1OC | inactive: 8.04%
COc1cccc(C(=O)NCC2(N3CCCCC3)CCCCC2)c1 | inactive: 1.75%
COc1ccc(Cl)cc1C(=O)NCC1(N(C)C)CCCCC1 | inactive: 28%
O=C(NCC1(N2CCCCC2)CCCCC1)c1cccc(Cl)c1 | inactive: 5.78%
O=C(OC1CN2CCC1CC2)C(CO)(c1ccccc1)c1ccccc1 (centres undefined) | inactive: 1.04%
COc1ccc(Br)c(C(=O)NCC2(N3CCCCC3)CCCCC2)c1 | inactive: -9.08%
CC(C)Oc1ccc(C(=O)NCC2(N(C)C)CCCCC2)cc1 | inactive: 11.4%
CN(C)c1cccc(C(=O)NCC2(N(C)C)CCCCC2)c1 | inactive: -17.9%
